Values quoted from earlier work as cited in PMC11678063.

Target: amyloid beta (Homo sapiens)

For calmodulin (from UniProt P0DP23), the Kd is listed as 0.98 nM.
